Reference: ChEMBL document CHEMBL3525921, “Metabolic pathways of inhaled glucocorticoids by the CYP3A enzymes” (Drug Metab Dispos, 2013)

Chains of the proteins cited; added tags and fusions are not shown.
UniProt P20815, whole entry: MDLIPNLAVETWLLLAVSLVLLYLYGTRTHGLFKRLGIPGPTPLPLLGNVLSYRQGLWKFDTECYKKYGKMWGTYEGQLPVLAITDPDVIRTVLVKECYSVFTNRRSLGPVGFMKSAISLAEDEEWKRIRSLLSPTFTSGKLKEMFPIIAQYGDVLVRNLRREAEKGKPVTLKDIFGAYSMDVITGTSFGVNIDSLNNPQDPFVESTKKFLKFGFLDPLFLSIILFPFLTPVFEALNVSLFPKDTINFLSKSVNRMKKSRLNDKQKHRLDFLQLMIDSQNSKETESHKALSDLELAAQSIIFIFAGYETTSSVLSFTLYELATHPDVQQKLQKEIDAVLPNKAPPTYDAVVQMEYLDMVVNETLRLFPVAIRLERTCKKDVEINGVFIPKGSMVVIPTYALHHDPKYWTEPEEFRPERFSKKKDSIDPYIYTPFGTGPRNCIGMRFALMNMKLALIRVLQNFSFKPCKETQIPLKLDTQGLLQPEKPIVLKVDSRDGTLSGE
UniProt P24462, whole entry: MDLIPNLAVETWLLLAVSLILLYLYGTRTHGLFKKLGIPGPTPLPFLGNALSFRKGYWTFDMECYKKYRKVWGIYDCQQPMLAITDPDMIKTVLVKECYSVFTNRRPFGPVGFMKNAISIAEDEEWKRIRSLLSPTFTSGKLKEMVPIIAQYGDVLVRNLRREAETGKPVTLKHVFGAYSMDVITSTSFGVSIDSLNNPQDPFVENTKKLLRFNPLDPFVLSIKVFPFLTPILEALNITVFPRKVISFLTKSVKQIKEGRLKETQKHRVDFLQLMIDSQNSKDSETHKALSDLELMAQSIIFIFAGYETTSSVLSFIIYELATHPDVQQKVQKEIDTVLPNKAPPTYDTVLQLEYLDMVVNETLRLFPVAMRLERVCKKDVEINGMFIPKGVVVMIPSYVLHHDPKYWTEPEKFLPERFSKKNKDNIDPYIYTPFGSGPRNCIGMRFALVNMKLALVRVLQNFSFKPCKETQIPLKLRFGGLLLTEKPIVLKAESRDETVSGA

Columns and labels:
Format in all cases: ADME
Details in all cases: recombinant enzyme
Cytochrome P450 3A5 [1] = biological target: T1, Cytochrome P450 3A5 (Homo sapiens, UniProt P20815); assay: Drug metabolism assessed as recombinant CYP3A5 (unknown origin)-mediated 16alpha-hydroxy prednisolone metabolite formation by MS/MS analysis
Cytochrome P450 3A5 [2] = biological target: T1, Cytochrome P450 3A5; assay: Drug metabolism assessed as recombinant CYP3A5 (unknown origin)-mediated delta6-budesonide metabolite formation by MS/MS analysis
Cytochrome P450 3A7 [3] = biological target: T2, Cytochrome P450 3A7 (Homo sapiens, UniProt P24462); assay: Drug metabolism assessed as recombinant CYP3A7 (unknown origin)-mediated 16alpha-hydroxy prednisolone metabolite formation by MS/MS analysis
Cytochrome P450 3A7 [4] = biological target: T2, Cytochrome P450 3A7; assay: Drug metabolism assessed as recombinant CYP3A7 (unknown origin)-mediated delta6-budesonide metabolite formation by MS/MS analysis
Cytochrome P450 3A5 [5] = biological target: T1, Cytochrome P450 3A5; assay: Drug metabolism assessed as recombinant CYP3A5 (unknown origin)-mediated 16alpha-hydroxy prednisolone metabolite formation by MS/MS analysis in presence of esterase inhibitor
Cytochrome P450 3A7 [6] = biological target: T2, Cytochrome P450 3A7; assay: Drug metabolism assessed as recombinant CYP3A7 (unknown origin)-mediated 16alpha-hydroxy prednisolone metabolite formation by MS/MS analysis in presence of esterase inhibitor
Cytochrome P450 3A5 [7] = biological target: T1, Cytochrome P450 3A5; assay: Drug metabolism assessed as recombinant CYP3A5 (unknown origin)-mediated 6beta-hydroxy budesonide metabolite formation by MS/MS analysis
Cytochrome P450 3A7 [8] = biological target: T2, Cytochrome P450 3A7; assay: Drug metabolism assessed as recombinant CYP3A7 (unknown origin)-mediated 6beta-hydroxy budesonide metabolite formation by MS/MS analysis
Cytochrome P450 3A5 [9] = biological target: T1, Cytochrome P450 3A5; assay: Drug metabolism assessed as recombinant CYP3A5 (unknown origin)-mediated 23-hydroxy budesonide metabolite formation by MS/MS analysis
Cytochrome P450 3A7 [10] = biological target: T2, Cytochrome P450 3A7; assay: Drug metabolism assessed as recombinant CYP3A7 (unknown origin)-mediated 23-hydroxy budesonide metabolite formation by MS/MS analysis

Drug metabolism (Cytochrome P450 3A5 [1]): metabolite_detected
Drug metabolism (Cytochrome P450 3A5 [2]): metabolite_detected
Drug metabolism (Cytochrome P450 3A7 [3]): metabolite_detected
Drug metabolism (Cytochrome P450 3A7 [4]): metabolite_detected
Drug metabolism (Cytochrome P450 3A5 [5]): metabolite_not_detected
Drug metabolism (Cytochrome P450 3A7 [6]): metabolite_not_detected
Drug metabolism (Cytochrome P450 3A5 [7]): metabolite_detected
Drug metabolism (Cytochrome P450 3A7 [8]): metabolite_detected
Drug metabolism (Cytochrome P450 3A5 [9]): metabolite_detected
Drug metabolism (Cytochrome P450 3A7 [10]): metabolite_detected
Structure (SMILES): CCCC1O[C@@H]2C[C@H]3[C@@H]4CCC5=CC(=O)C=C[C@]5(C)[C@H]4[C@@H](O)C[C@]3(C)[C@]2(C(=O)CO)O1 (stereo not given in full) [BUDESONIDE]
